Molecular target: T1, Nav1.2 (Mus musculus, UniProt B1AWN6)
T1 construct: endogenous in cells
Test: Whole-cell patch-clamp, sodium channel Nav1.2 (N1E-115)
Assay type: cell-based

Chains of the proteins cited; added tags and fusions are not shown.
UniProt B1AWN6, whole entry: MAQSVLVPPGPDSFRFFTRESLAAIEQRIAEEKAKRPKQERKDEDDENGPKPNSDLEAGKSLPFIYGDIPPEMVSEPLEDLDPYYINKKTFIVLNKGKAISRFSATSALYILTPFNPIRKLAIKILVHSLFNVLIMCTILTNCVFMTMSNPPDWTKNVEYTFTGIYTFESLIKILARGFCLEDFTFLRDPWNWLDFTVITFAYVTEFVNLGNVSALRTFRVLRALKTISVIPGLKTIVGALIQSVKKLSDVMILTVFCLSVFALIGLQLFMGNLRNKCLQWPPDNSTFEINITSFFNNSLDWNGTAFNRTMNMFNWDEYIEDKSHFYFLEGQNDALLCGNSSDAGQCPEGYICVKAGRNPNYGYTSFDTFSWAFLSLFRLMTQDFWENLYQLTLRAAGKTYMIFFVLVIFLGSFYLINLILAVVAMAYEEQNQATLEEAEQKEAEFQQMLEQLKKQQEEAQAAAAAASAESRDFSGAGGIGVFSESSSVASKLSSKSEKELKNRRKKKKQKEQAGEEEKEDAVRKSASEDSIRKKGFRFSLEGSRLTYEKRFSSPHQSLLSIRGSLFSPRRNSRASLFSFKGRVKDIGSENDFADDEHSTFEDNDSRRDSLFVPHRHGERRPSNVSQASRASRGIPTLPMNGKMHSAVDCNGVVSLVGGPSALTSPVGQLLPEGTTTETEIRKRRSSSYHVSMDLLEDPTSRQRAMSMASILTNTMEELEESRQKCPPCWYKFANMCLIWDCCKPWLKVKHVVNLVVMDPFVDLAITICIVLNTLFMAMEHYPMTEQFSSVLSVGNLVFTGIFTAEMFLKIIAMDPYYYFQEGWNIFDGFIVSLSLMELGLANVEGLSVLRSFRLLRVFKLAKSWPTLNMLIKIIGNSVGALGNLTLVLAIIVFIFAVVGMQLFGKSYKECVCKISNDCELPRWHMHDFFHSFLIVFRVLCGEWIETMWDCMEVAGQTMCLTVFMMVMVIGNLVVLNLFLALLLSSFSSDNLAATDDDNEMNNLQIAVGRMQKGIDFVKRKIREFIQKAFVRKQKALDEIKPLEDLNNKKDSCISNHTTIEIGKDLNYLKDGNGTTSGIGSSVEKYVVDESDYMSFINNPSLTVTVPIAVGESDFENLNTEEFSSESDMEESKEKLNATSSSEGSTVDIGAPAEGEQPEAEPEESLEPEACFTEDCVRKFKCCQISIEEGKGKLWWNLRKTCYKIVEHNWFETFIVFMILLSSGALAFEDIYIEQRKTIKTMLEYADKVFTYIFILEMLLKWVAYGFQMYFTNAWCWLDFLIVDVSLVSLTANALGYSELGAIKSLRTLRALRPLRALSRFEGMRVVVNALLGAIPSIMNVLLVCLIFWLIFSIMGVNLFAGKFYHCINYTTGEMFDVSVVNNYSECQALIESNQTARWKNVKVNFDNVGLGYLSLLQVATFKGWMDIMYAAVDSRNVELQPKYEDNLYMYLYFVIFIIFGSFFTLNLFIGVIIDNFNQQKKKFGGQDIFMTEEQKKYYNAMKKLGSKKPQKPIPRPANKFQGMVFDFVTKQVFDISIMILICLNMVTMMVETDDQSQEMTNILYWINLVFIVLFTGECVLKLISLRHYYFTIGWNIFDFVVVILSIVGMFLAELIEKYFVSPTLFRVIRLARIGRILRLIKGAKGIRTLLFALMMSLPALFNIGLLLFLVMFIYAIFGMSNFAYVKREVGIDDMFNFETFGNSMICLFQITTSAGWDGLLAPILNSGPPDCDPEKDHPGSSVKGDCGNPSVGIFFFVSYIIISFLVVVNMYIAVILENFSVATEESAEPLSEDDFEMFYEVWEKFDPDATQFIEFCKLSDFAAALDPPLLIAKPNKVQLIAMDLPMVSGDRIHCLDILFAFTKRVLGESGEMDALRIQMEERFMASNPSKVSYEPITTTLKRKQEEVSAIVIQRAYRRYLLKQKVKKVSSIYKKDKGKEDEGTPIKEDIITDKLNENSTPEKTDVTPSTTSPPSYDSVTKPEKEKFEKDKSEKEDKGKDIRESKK

Row | SMILES | S (selectivity over Nav1.2), S = Kd Nav1.2/Kd Kv1.3 | Kd (whole-cell patch-clamp, n = 3) [µM]
1 | COc1c2ccoc2cc2oc(=O)ccc12 [5-MOP, 5-Methoxypsoralen] | 14 | 
2 | O=c1ccc2c(OCCCCc3ccccc3)c3ccoc3cc2o1 [J 19 (Psora 4), 4-(4-Phenylbutoxy)-7H-furo[3,2-g][1]benzopyran-7-one] |  | > 1

From patent US7772408B1, “Substituted 5-alkoxypsoralens as inhibitors of potassium channel activity in lymphocytes and other cells” (The Regents of the University of California, priority 2002, dated 2010)
